Test results as given in PubChem BioAssay AID492965 (The Scripps Research Institute Molecular Screening Center, 2010).
Only a part is listed here, and it is no random draw. Activity calls are given as the source filed them.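 How the source made its calls: active means inhibition above a per-plate limit, the mean inhibition of that plate's test compounds plus 3 SD (cut at about 25% in these data); inactive means the rest.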

Assay: ATP-evoked calcium inhibition in parental CHO, counter-screen for OX1R antagonist project, cell-based, fluorescence, CHO-K1, triplicate (AID 492965);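 further: 0% = ATP challenge with DMSO and 100% = DMSO without ATP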
Settings: parental CHO-K1, ATP-induced calcium, Fluo-8 fluorescence; at 5.6 µM; stronger effect = higher value

SMILES	inhibition
CP(=O)(Nc1ccc2c(c1)OCCO2)Oc1ccccc1 (stereo unspecified)	inactive: 2.58%
